Tests used:
[1] = Pharmacokinetic study of bolus recombinant hIFN-β1a protein, serum hIFN-β by ELISA
[2] = mice, rats and monkeys; cited from earlier work

hIFN-β1a: recombinant human interferon-β 1a protein
difference in serum hIFN-β1a level between the high and low dose ([1]; i.v. and i.m., 250 ng vs 25 ng): 10 fold
decrease of hIFN-β1a serum level from maximum by 6 hours ([1]; single i.m. injection): approximately 10 fold
time at which hIFN-β1a serum level reached a maximum level post-injection ([1]; single i.m. injection, 25 ng or 250 ng): 2 h
hIFN-β1a serum level by 6 hours ([1]; single i.v. injection, LOD=12.5 pg/ml): near the limit of detection
half-life [2]: approximately 1 hours

PEGylated form of IFN-β1a: IFN-β1a with attachment of a 20-kDa polymer of polyethylene glycol [reference compound]
half-life [2]: 10 h

From patent publication US20080076729A1, “Interferon-beta gene therapy using an improved, regulated expression system” (Schering Aktiengesellachaft, priority 2005, published 2008)
